The Vmax is the rate approached at saturating substrate.

Protein sequences, listed by entry. Tags and fused reporters are not part of them.
UniProt O15245, whole entry: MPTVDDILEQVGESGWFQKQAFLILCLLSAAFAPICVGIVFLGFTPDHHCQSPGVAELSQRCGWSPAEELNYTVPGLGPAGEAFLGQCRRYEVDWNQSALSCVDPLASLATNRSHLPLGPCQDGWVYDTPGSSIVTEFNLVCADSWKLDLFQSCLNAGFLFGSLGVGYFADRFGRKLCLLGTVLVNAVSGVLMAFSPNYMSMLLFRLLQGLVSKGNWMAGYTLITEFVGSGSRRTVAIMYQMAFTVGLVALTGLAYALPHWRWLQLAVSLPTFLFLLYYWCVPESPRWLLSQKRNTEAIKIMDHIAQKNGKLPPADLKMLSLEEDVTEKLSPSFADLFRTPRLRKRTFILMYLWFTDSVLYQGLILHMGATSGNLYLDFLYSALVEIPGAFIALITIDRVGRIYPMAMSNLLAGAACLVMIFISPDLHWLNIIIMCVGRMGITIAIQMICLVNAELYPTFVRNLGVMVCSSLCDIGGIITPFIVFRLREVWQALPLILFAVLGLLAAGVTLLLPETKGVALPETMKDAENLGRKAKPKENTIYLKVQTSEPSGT
UniProt O75751, whole entry: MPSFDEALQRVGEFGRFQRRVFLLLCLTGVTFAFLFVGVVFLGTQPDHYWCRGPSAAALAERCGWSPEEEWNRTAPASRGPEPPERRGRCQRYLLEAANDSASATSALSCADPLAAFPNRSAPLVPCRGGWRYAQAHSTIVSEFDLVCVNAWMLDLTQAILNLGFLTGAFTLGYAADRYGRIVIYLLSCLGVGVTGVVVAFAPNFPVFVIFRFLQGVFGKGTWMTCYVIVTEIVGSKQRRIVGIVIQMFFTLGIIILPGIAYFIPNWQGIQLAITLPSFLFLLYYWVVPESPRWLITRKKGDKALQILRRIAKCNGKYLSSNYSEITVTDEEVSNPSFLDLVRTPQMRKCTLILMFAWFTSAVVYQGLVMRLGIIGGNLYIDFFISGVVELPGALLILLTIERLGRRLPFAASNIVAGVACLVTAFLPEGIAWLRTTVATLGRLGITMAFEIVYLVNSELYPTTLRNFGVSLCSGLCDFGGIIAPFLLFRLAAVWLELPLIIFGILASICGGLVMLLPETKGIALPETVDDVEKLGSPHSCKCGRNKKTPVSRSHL

What all share (type): cell-based
Details in all cases: hek293, 2 min

Data set [1] deals with T1, Solute carrier family 22 member 1 (Homo sapiens, UniProt O15245). In words: Substrate activity at human OCT1 expressed in HEK293 cells assessed as increase in compound uptake at 0.05 uM incubated for 2 mins by LC-MS/MS analysis relative to control empty vector transfected cells.
In data set [2] the target is T1, Solute carrier family 22 member 1. In words: Substrate activity at human OCT1 expressed in HEK293 cells assessed as increase in compound uptake at 0.1 uM incubated for 2 mins by LC-MS/MS analysis relative to control empty vector transfected cells.
For data set [3] the target is unchanged. The data set can be described thus: Substrate activity at human OCT1 expressed in HEK293 cells assessed as increase in compound uptake at 0.5 uM incubated for 2 mins by LC-MS/MS analysis relative to control empty vector transfected cells.
Data set [4] shares this target. In words: Substrate activity at human OCT1 expressed in HEK293 cells assessed as increase in compound uptake by measuring Vmax incubated for 2 mins by LC-MS/MS analysis based Michaelis-Menten plot analysis relative to control empty vector transfected cells.
For data set [5], the target named is Solute carrier family 22 member 3 (Homo sapiens, UniProt O75751). In words: Substrate activity at human OCT3 expressed in HEK293 cells assessed as increase in compound uptake by measuring Vmax incubated for 2 mins by LC-MS/MS analysis based Michaelis-Menten plot analysis relative to control empty vector transfected cells.

This is a selection: effects in other tests are not listed, and their absence says nothing.

Take `CCC(=O)N(c1ccccc1)C1CCNCC1`: the fold change (FC) in data set [1] was determined as 7; in data set [2] it was 6.6; in data set [3], 7.2. The Vmax is 178 pmol/min/mg in data set [4] and 104 pmol/min/mg in data set [5].

The values are drawn from ChEMBL document CHEMBL4321821, “Opioids as Substrates and Inhibitors of the Genetically Highly Variable Organic Cation Transporter OCT1” (J Med Chem, 2019).
